Results published in ChEMBL document CHEMBL4364301 (Eur J Med Chem, 2019).

Tests used:
Type in all cases: functional
[1] = tested on: LNCaP; experiment: Antiproliferative activity against human LNCAP cells assessed as reduction in cell growth incubated for 96 hrs by propidium iodide based 2D monolayer assay
Outline: (§1)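 After 24 h recovery, compound in medium or medium alone (control wells) was added at 10 half-log concentrations from 0.0032 to 100 µM, in triplicate, with at most 0.3% DMSO. After 96 h, wells were PBS-washed, stained with 7 µg/ml PI and 0.1% Triton X-100, and fluorescence read at 530/620 nm. IC50 came from a 4-parameter fit, geometric mean.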

[2] = tested on: VCaP; experiment: Antiproliferative activity against human VCaP cells assessed as reduction in cell growth incubated for 96 hrs by propidium iodide based 2D monolayer assay
Outline: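 VCaP cells in RPMI 1640 with 10% FCS at 37 °C, 5% CO2, seeded 4,000–20,000 cells/well and left 24 h before dosing. Compounds from DMSO stocks were diluted in half-log steps in medium, 10 concentrations 0.0032–100 μM, triplicate wells, max 0.3% DMSO. After 96 h, cells were washed, stained with 7 μg/ml propidium iodide plus 0.1% Triton X-100 for 1–2 h at room temperature, and fluorescence read at ex 530/em 620 nm.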

[3] = tested on: CWR22R; experiment: Antiproliferative activity against human 22Rv1 cells assessed as reduction in cell growth incubated for 96 hrs by propidium iodide based 2D monolayer assay; outline: as §1
[4] = tested on: DU-145; experiment: Antiproliferative activity against human DU145 cells assessed as reduction in cell growth incubated for 96 hrs by propidium iodide based 2D monolayer assay; outline: as §1

Measured: Activity

CC(O)(CS(=O)(=O)c1cccc(S(F)(F)(F)(F)F)c1)C(=O)Nc1ccc(S(F)(F)(F)(F)F)cc1 (racemic)
active: [1] Dose-dependent effect | [2] Dose-dependent effect | [3] Dose-dependent effect | [4] Dose-dependent effect

CC(O)(COc1ccc(S(F)(F)(F)(F)F)cc1)C(=O)Nc1ccc(S(F)(F)(F)(F)F)cc1 (racemic)
active: [1] Dose-dependent effect | [2] Dose-dependent effect | [3] Dose-dependent effect | [4] Dose-dependent effect

CC(O)(CSc1ccccc1OC(F)(F)F)C(=O)Nc1cccc(S(F)(F)(F)(F)F)c1 (racemic)
active: [1] Dose-dependent effect | [2] Dose-dependent effect | [3] Dose-dependent effect | [4] Dose-dependent effect

CC(O)(CS(=O)(=O)c1ccc(S(F)(F)(F)(F)F)cc1)C(=O)Nc1ccc(C#N)cc1C(F)(F)F (racemic)
active: [1] Dose-dependent effect | [2] Dose-dependent effect | [3] Dose-dependent effect | [4] Dose-dependent effect

CC1(C)C(=O)N(c2ccc(C#N)cc2C(F)(F)F)C(=S)N1c1cccc(S(F)(F)(F)(F)F)c1
active: [1] Dose-dependent effect | [2] Dose-dependent effect | [3] Dose-dependent effect | [4] Dose-dependent effect

CC(O)(COc1cccc(S(F)(F)(F)(F)F)c1)C(=O)Nc1ccc([N+](=O)[O-])cc1C(F)(F)F (racemic)
active: [1] Dose-dependent effect | [2] Dose-dependent effect | [3] Dose-dependent effect | [4] Dose-dependent effect

CC(O)(CSc1cccc(S(F)(F)(F)(F)F)c1)C(=O)Nc1ccc(S(F)(F)(F)(F)F)cc1 (racemic)
active: [1] Dose-dependent effect | [2] Dose-dependent effect | [3] Dose-dependent effect | [4] Dose-dependent effect

CC1(C)C(=O)N(c2ccc([N+](=O)[O-])cc2C(F)(F)F)C(=S)N1c1ccc(S(F)(F)(F)(F)F)cc1
active: [1] Dose-dependent effect | [2] Dose-dependent effect | [3] Dose-dependent effect | [4] Dose-dependent effect

CC(O)(COc1cc(C(F)(F)F)cc(C(F)(F)F)c1)C(=O)Nc1cccc(S(F)(F)(F)(F)F)c1 (racemic)
active: [1] Dose-dependent effect | [2] Dose-dependent effect | [3] Dose-dependent effect | [4] Dose-dependent effect

CC(O)(COc1cccc(C(F)(F)F)c1)C(=O)Nc1cccc(S(F)(F)(F)(F)F)c1 (racemic)
active: [1] Dose-dependent effect | [2] Dose-dependent effect | [3] Dose-dependent effect | [4] Dose-dependent effect

CC(O)(COc1cccc(C(F)(F)F)c1)C(=O)Nc1ccc(S(F)(F)(F)(F)F)cc1 (racemic)
active: [1] Dose-dependent effect | [2] Dose-dependent effect | [3] Dose-dependent effect | [4] Dose-dependent effect

CC(O)(CSc1cccc(S(F)(F)(F)(F)F)c1)C(=O)Nc1ccc([N+](=O)[O-])c(C(F)(F)F)c1 (racemic)
active: [1] Dose-dependent effect | [2] Dose-dependent effect | [3] Dose-dependent effect | [4] Dose-dependent effect

CC(O)(CS(=O)(=O)c1ccc(F)cc1)C(=O)Nc1ccc(S(F)(F)(F)(F)F)cc1 (racemic)
active: [1] Dose-dependent effect | [2] Dose-dependent effect | [3] Dose-dependent effect | [4] Dose-dependent effect

CC(O)(COc1ccc(OC(F)(F)F)cc1)C(=O)Nc1cccc(S(F)(F)(F)(F)F)c1 (racemic)
active: [1] Dose-dependent effect | [2] Dose-dependent effect | [3] Dose-dependent effect | [4] Dose-dependent effect

CC(O)(CSc1ccc(OC(F)(F)F)cc1)C(=O)Nc1ccc(S(F)(F)(F)(F)F)cc1 (racemic)
active: [1] Dose-dependent effect | [2] Dose-dependent effect | [3] Dose-dependent effect | [4] Dose-dependent effect

CC(O)(COc1cccc(S(F)(F)(F)(F)F)c1)C(=O)Nc1ccc(C#N)cc1C(F)(F)F (racemic)
active: [1] Dose-dependent effect | [2] Dose-dependent effect | [3] Dose-dependent effect | [4] Dose-dependent effect

CC(O)(COc1ccc(C#N)cc1)C(=O)Nc1cccc(S(F)(F)(F)(F)F)c1 (racemic)
active: [1] Dose-dependent effect | [2] Dose-dependent effect | [3] Dose-dependent effect | [4] Dose-dependent effect

CC(O)(COc1cccc(OC(F)(F)F)c1)C(=O)Nc1ccc(S(F)(F)(F)(F)F)cc1 (racemic)
active: [1] Dose-dependent effect | [2] Dose-dependent effect | [3] Dose-dependent effect | [4] Dose-dependent effect

CC(O)(COc1ccc(S(F)(F)(F)(F)F)cc1)C(=O)Nc1ccc(C#N)cc1C(F)(F)F (racemic)
active: [1] Dose-dependent effect | [2] Dose-dependent effect | [3] Dose-dependent effect | [4] Dose-dependent effect

CC(O)(CSc1cccc(S(F)(F)(F)(F)F)c1)C(=O)Nc1ccc(C#N)c(C(F)(F)F)c1 (racemic)
active: [1] Dose-dependent effect | [2] Dose-dependent effect | [3] Dose-dependent effect | [4] Dose-dependent effect

CC(O)(CS(=O)(=O)c1ccccc1OC(F)(F)F)C(=O)Nc1cccc(S(F)(F)(F)(F)F)c1 (racemic)
active: [1] Dose-dependent effect | [2] Dose-dependent effect | [3] Dose-dependent effect | [4] Dose-dependent effect

CC(O)(CSc1cccc(C(F)(F)F)c1)C(=O)Nc1ccc(S(F)(F)(F)(F)F)cc1 (racemic)
active: [1] Dose-dependent effect | [2] Dose-dependent effect | [3] Dose-dependent effect | [4] Dose-dependent effect

CC(O)(COc1cc(C(F)(F)F)cc(C(F)(F)F)c1)C(=O)Nc1ccc(S(F)(F)(F)(F)F)cc1 (racemic)
active: [1] Dose-dependent effect | [2] Dose-dependent effect | [3] Dose-dependent effect | [4] Dose-dependent effect

CC(O)(CSc1ccc(C(F)(F)F)cn1)C(=O)Nc1ccc(S(F)(F)(F)(F)F)cc1 (racemic)
active: [1] Dose-dependent effect | [2] Dose-dependent effect | [3] Dose-dependent effect | [4] Dose-dependent effect

CC(O)(COc1ccc(S(F)(F)(F)(F)F)cc1)C(=O)Nc1ccc(C#N)c(C(F)(F)F)c1 (racemic)
active: [1] Dose-dependent effect | [2] Dose-dependent effect | [3] Dose-dependent effect | [4] Dose-dependent effect

CC(O)(CSc1cc(C(F)(F)F)cc(C(F)(F)F)c1)C(=O)Nc1cccc(S(F)(F)(F)(F)F)c1 (configuration not stated)
active: [1] Dose-dependent effect | [2] Dose-dependent effect | [3] Dose-dependent effect | [4] Dose-dependent effect

CC(O)(COc1ccc(C(F)(F)F)cc1)C(=O)Nc1cccc(S(F)(F)(F)(F)F)c1 (racemic)
active: [1] Dose-dependent effect | [2] Dose-dependent effect | [3] Dose-dependent effect | [4] Dose-dependent effect

CC(O)(COc1ccc(C#N)cc1)C(=O)Nc1ccc(S(F)(F)(F)(F)F)cc1 (racemic)
active: [1] Dose-dependent effect | [2] Dose-dependent effect | [3] Dose-dependent effect | [4] Dose-dependent effect

CC(O)(CSc1cccc(OC(F)(F)F)c1)C(=O)Nc1ccc(S(F)(F)(F)(F)F)cc1 (racemic)
active: [1] Dose-dependent effect | [2] Dose-dependent effect | [3] Dose-dependent effect | [4] Dose-dependent effect

CC(O)(COc1ccc(S(F)(F)(F)(F)F)cc1)C(=O)Nc1cc(C(F)(F)F)cc(C(F)(F)F)c1 (racemic)
active: [1] Dose-dependent effect | [2] Dose-dependent effect | [3] Dose-dependent effect | [4] Dose-dependent effect

CC(O)(COc1ccc(S(F)(F)(F)(F)F)cc1)C(=O)Nc1ccc([N+](=O)[O-])c(C(F)(F)F)c1 (racemic)
active: [1] Dose-dependent effect | [2] Dose-dependent effect | [3] Dose-dependent effect | [4] Dose-dependent effect

CC(O)(COc1cccc(S(F)(F)(F)(F)F)c1)C(=O)Nc1ccc(S(F)(F)(F)(F)F)cc1 (racemic)
active: [1] Dose-dependent effect | [2] Dose-dependent effect | [3] Dose-dependent effect | [4] Dose-dependent effect

CC(O)(CS(=O)(=O)c1ccccc1C(F)(F)F)C(=O)Nc1cccc(S(F)(F)(F)(F)F)c1 (racemic)
active: [1] Dose-dependent effect | [2] Dose-dependent effect | [3] Dose-dependent effect | [4] Dose-dependent effect
